For 62 compounds, activity change results are on record in PubChem BioAssay AID743279 (National Center for Advancing Translational Sciences (NCATS), 2014).

Only a part is listed here, and it is no random draw. Inconclusive results are not listed. Active and inactive are the calls of the source. Cut-off read from the data, not from the text of the source: active = activity change below about -50%; inconclusive = mostly about -30% to -49%; inactive = weaker than that.
% is set by controls: 0 for no effect and ±100 for the full control effect.

This test can be described thus: qHTS for Inhibitors of Inflammasome Signaling: IL-1-beta AlphaLISA Primary Screen. The note with it: THP-1 LPS/ATP IL-1B secretion, 16 h; at 57.5 µM, active compounds read low. An excerpt: Inflammasomes are a set of intracellular multi-protein complexes that enable autocatalytic activation of inflammatory caspases and drive the innate immune response to counter harmful agents. […] A qHTS assay, based on AlphaLISA technology, was developed to screen the Molecular Libraries Small Molecule Repository (MLSMR) to look for novel inflammasome inhibitors. The assay detects IL-1B using AlphaLISA anti-IL-1B acceptor and donor beads. A decreased emission signal, indicating reduced IL-1B secretion, is the desired outcome for this assay. NIH Chemical Genomics Center [NCGC] NIH Molecular Libraries Probe Centers Network [MLPCN] MLPCN Grant: MH095513 Assay Provider: Shyam Biswal Ph.D., Johns Hopkins University Immunity. 2012 Jul 27;37(1):85-95. PMID: 22819042 [2] Curr Pharm Des. 2012;18(16):2320-8. PMID: 22390695
Three microliters containing 3000 THP-1 cells were dispensed into the wells of solid, white, tissue culture treated Greiner 1,536-well plates. Library compounds and positive control, Glyburide, were pin-transferred (23 nL) by a Kalypsys pin-tool equipped with a 1,536-pin array, resulting in final compound concentration ranges of 2.5 nM to 57.5 uM. After 1 hr of cell culture incubation (37 °C, 5% CO2), 1 microL of 1 microg/mL lipopolysaccharide (250 ng/mL, final) and 5 mM ATP (1.25 mM, final) were added to stimulate the cells. After 16 hr of cell culture incubation with the compounds, 1.5 uL of anti-IL-1B acceptor beads (6 ug/mL, final) and biotinylated antibody (0.6 nM, final) were added to the plate, followed by a 1 hr incubation at ambient temperature. To detect the secreted IL-1B, 1.5 uL of AlphaLISA SA-Donor beads (24 ug/mL, final) were added, followed by 30 min of incubation in the dark at ambient temperature. The AlphaLISA signal was read by a PerkinElmer EnVision plate reader with an ultrasensitive luminescence detector and 1536 Plate HTS AlphaScreen aperture (excitation of 680nm and emission of 615nm).
(In qHTS, concentration-response curves come from the screen itself.)
Turning to `N#Cc1ccc(C(=O)NCC2(N3CCCCC3)CCCCC2)cc1`, the activity change was inactive: -9.11%. To `CC(C)(C)OC(=O)N1CCC(N(C(=O)c2ccccc2)c2ccc(Cl)cc2)CC1` belongs “active”. For `CCOC(=O)C(CC)C1=NC(C)(C)Cc2ccccc21.O=[N+]([O-])c1cc([N+](=O)[O-])c(O)c([N+](=O)[O-])c1` (configuration not stated), the activity change is inactive: 15.2%.

Regarding `CN(C)C1(CNC(=O)c2cccc(C#N)c2)CCCCC1`, the activity change was inactive: 17.1%. To `Cc1cc(N(CCCl)CCCl)ccc1C=O` belongs inactive: 5.08%; to `CCCN1CCC(Nc2cc(OC)cc(OC)c2)CC1`, inactive: -8.92%; to `c1ccc(CN2CCC(Nc3ccccc3)CC2)cc1`, inactive: -3.67%. With `CC(C)(C)n1nnnc1C(c1cccc2ccccc12)N1CCC(n2c(=O)[nH]c3ccccc32)CC1` (configuration not stated), the activity change entry was “active”. With `COc1cc(C(=O)NCC2(N3CCOCC3)CCCCC2)cc(OC)c1C`, the activity change is inactive: 13.4%. The result for `CCCCn1nnnc1C(c1ccccc1)N1CCC(n2c(=O)[nH]c3ccccc32)CC1` (configuration not stated) reads inactive: -8.46%; that for `O=C(NCC1(N2CCOCC2)CCCCC1)c1cc(Br)ccc1Cl`, inactive: -10.7%. `O=c1[nH]c2ccccc2n1C1CCN(C(c2cccs2)c2nnnn2C2CCCCC2)CC1` (configuration not stated): the activity change is inactive: -19.4%. For the compound `O=c1[nH]c2ccccc2n1C1CCN(C(c2ccnc3ccccc23)c2nnnn2C2CCCC2)CC1` (configuration not stated), the activity change is inactive: 0%. Take `COc1ccc(C(=O)NCC2(N3CCOCC3)CCCCC2)cc1OC`: the activity change was inactive: -23.6%. For `CCOC(=O)N1CCC(Nc2ccc(C)cc2)CC1`, the activity change is inactive: -4.17%. For `N/C(=N\O)c1c(N)no[n+]1[O-]`, the activity change is inactive: 17.2%.

As for `O=C(O)c1cccc(Nc2c([N+](=O)[O-])cc([N+](=O)[O-])cc2[N+](=O)[O-])c1`, the activity change was inactive: -2.17%. Turning to `CCc1cc(C(=O)NCC2(N3CCCCC3)CCCCC2)sc1C`, the activity change result was “active”.

With `O=C(OC1CN2CCC1CC2)C1c2ccccc2C=Cc2ccccc21` (configuration not stated), the activity change is inactive: -25.7%. In the case of `CCCCn1nnnc1C(c1cccc(OC)c1OC)N1CCC(n2c(=O)[nH]c3ccccc32)CC1` (configuration not stated), the activity change is inactive: -29.9%. For the compound `CN1CCC(Nc2ccc(F)c(Cl)c2)CC1`, the activity change is inactive: -3.46%. Turning to `CCOc1ncccc1C(=O)NCC1(N2CCOCC2)CCCCC1`, the activity change is inactive: -0.586%.

For the compound `O=C(O)C1(Nc2ccccc2)CCN(Cc2ccccc2)CC1`, the activity change was inactive: 10.6%. Turning to `NN(c1ccccc1)C1CCN(CCc2ccccc2)CC1`, the activity change was inactive: 0%. As to `CC(C)(C)OC(=O)N1CCC(Nc2ccccc2)CC1`, the activity change is inactive: -16.6%.

For `CCCOc1ccc(C(=O)NCC2(N(C)C)CCCCC2)cc1`, the activity change is inactive: -19.2%.

With `COc1cccc(C(c2nnnn2C2CCCC2)N2CCC(n3c(=O)[nH]c4ccccc43)CC2)c1OC` (configuration not stated), the activity change was inactive: 0%. `COc1cc(OC)cc(C(=O)NCC2(N3CCOCC3)CCCCC2)c1`: the activity change was inactive: 20.5%.

Turning to `COc1cccc(C(=O)N(c2cc(C)cc(C)c2)C2CCN(C(=O)OC(C)(C)C)CC2)c1`, the activity change entry is “active”. Turning to `CCC(CO)(C(=O)OC1CN2CCC1CC2)c1ccccc1` (configuration not stated), the activity change is inactive: 6.15%. Regarding `CN1CCC(Nc2ccc(Cl)cc2)CC1`, the activity change was inactive: -13.3%. In the case of `CCC(c1nnnn1C1CCCCC1)N1CCC(n2c(=O)[nH]c3ccccc32)CC1` (configuration not stated), the activity change is inactive: -20.1%. The result for `COc1cccc(C(c2nnnn2C2CCCCC2)N2CCC(n3c(=O)[nH]c4ccccc43)CC2)c1OC` (configuration not stated) reads inactive: -25.5%. Regarding `CC(=O)N(c1ccccc1)C1CCNCC1`, the activity change is inactive: -17.6%. With `COc1cc(OC)cc(C(=O)NCC2(N3CCCCC3)CCCCC2)c1`, the activity change is inactive: -3.27%.

In the case of `O=c1[nH]c2ccccc2n1C1CCN(C(c2ccnc3ccccc23)c2nnnn2C2CCCCC2)CC1` (configuration not stated), the activity change entry was “active”. Consider `Fc1ccccc1NC1CCN(Cc2ccccc2)CC1`, for which the activity change is inactive: -1.11%. For `Cc1ccc(Nc2c([N+](=O)[O-])cc([N+](=O)[O-])cc2[N+](=O)[O-])cc1`, the activity change is active: -69%.

`Cc1ccc(C(=O)NCC2(N3CCCCC3)CCCCC2)o1`: the activity change is inactive: 10.3%. Turning to `Cc1ccc(NC2(C#N)CCN(Cc3ccccc3)CC2)cc1`, the activity change was inactive: 11.1%. To `CCN1CCC(Nc2cccc(F)c2)CC1` belongs inactive: 4.38%. The result for `COc1ccc(C(c2nnnn2C2CCCCC2)N2CCC(n3c(=O)[nH]c4ccccc43)CC2)cc1` (configuration not stated) reads “active”. As for `CC(C)(C)n1nnnc1C(c1ccnc2ccccc12)N1CCC(n2c(=O)[nH]c3ccccc32)CC1` (configuration not stated), the activity change was inactive: 30.8%. Consider `Cc1ccccc1NC1(C#N)CCN(Cc2ccccc2)CC1`, for which the activity change was inactive: 8.39%. As to `CN(C)c1ccc(C(=O)NCC2(N3CCCCC3)CCCCC2)cc1`, the activity change was inactive: -4.35%.

For the compound `Cn1c(=O)[nH]cc(N(CCCl)CCCl)c1=O`, the activity change is inactive: 8.91%. `O=C(NCC1(N2CCCCC2)CCCCC1)c1ccco1`: the activity change was inactive: 8.13%. In the case of `O=C1CCN(Cc2ccccc2)CC1`, the activity change is inactive: 5.27%.

Take `CC(C)(C)n1nnnc1C(c1ccccc1)N1CCC(n2c(=O)[nH]c3ccccc32)CC1` (configuration not stated): the activity change is inactive: -15.9%. Turning to `CCOc1ccc(C)cc1CN(CCCl)CCCl`, the activity change was inactive: 3.39%.

In the case of `COc1ccc(NC2CCN(CCc3ccccc3)CC2)c(OC)c1`, the activity change is inactive: -8.96%. Turning to `CCOC(=O)N1CCC(Nc2ccc(F)cc2)CC1`, the activity change was inactive: -21.6%.

Consider `O=P1(N(CCCl)CCCl)SCCCS1`, for which the activity change was inactive: 5.33%.

`CCCCn1nnnc1C(c1cc2ccccc2o1)N1CCC(n2c(=O)[nH]c3ccccc32)CC1` (configuration not stated): the activity change result was “active”. The result for `CCCCOc1ccc(C(=O)NCC2(N3CCOCC3)CCCCC2)cc1` reads “active”. As to `O=C(NCC1(N2CCCCC2)CCCCC1)c1ccc(F)cc1`, the activity change was inactive: 14.4%.

Regarding `O=c1[nH]c2ccccc2n1C1CCN(C(c2ccccc2)c2nnnn2C2CCCCC2)CC1` (configuration not stated), the activity change was inactive: 0%. `CCOC(=O)N1CCC(Nc2cccc(C)c2)CC1`: the activity change was inactive: -5.4%. Turning to `COc1cc(C(=O)NCC2(N(C)C)CCCCC2)ccc1OC(F)F`, the activity change was inactive: -14.5%.

Turning to `CC(C)(C)OC(=O)N1CCC(N(C(=O)c2ccccc2)c2ccc(F)cc2)CC1`, the activity change is inactive: 16.5%. The result for `COc1ccc(C(=O)NCC2(N3CCCCC3)CCCCC2)c(OC)c1OC` reads inactive: -0.661%. To `CCC(c1nnnn1C1CCCC1)N1CCC(n2c(=O)[nH]c3ccccc32)CC1` (configuration not stated) belongs inactive: -13.9%.
